Results from US20160272620A1 (priority 2013, published 2016).

By UniProt entry, the sequences of proteins in these tests, tags left out. Residues count along the entry.
UniProt P22303, 32-574: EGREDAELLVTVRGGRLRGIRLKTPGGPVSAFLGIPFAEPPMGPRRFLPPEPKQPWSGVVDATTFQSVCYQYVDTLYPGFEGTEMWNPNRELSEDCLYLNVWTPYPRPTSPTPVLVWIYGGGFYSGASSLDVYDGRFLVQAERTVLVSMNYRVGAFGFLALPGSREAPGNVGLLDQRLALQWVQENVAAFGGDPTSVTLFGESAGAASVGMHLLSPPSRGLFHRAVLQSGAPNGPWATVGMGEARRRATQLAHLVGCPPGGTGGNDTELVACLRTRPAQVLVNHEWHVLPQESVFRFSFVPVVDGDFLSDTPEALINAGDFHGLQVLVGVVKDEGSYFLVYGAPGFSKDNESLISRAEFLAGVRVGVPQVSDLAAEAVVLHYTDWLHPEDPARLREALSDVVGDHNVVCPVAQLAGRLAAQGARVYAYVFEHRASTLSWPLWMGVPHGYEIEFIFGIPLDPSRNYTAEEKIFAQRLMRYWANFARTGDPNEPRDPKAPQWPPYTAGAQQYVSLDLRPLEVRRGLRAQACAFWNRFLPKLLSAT
UniProt P22303, 32-614: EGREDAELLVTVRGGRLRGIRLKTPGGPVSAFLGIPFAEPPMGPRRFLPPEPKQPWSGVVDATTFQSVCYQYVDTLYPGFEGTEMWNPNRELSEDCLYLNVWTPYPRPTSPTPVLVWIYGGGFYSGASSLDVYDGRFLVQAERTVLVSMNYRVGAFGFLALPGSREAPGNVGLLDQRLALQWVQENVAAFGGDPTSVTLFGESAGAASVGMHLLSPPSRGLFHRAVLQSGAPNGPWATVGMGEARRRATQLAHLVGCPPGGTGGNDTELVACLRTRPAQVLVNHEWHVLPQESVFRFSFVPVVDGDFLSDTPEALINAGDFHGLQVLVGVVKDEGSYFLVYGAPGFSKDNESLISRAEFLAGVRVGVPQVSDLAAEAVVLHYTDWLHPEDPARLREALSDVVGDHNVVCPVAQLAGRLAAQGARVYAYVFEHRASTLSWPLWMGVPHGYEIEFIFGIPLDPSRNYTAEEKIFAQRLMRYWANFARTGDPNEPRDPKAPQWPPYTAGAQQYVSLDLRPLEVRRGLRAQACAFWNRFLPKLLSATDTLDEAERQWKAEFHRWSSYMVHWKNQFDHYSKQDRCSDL

Key:
paraoxon-hAChE = paraoxon-hAChE (Homo sapiens, UniProt P22303); assay: biochemical
Recombinant hAChE = Recombinant hAChE (Homo sapiens, UniProt P22303); type: biochemical

Row | SMILES | Kd (paraoxon-hAChE; read-out: KD) | IC50 (Recombinant hAChE) | Kd (paraoxon-hAChE)
1 | O/N=C/c1nc(CCCCCNc2c3c(nc4ccccc24)CCCC3)ccc1O [Compound 11, 2-[(1E)-(hydroxyimino)methyl]-6-{5-[(1,2,3,4-tetrahydroacridin-9-yl)amino]pentyl}pyridin-3-ol] | 1100 ± 100 nM | 260 ± 10 nM | –
2 | ON=Cc1nc(CCCCNc2c3c(nc4ccccc24)CCCC3)ccc1O [Compound 12, 2-[1-(hydroxyimino)methyl]-6-{4-[(1,2,3,4-tetrahydroacridin-9-yl)amino]butyl}pyridin-3-ol] | – | – | 3600 ± 200 nM

Read-outs that look alike come from different tables or passages of the source.
